Reference: article PMC7047876, “Potent Chimeric Antimicrobial Derivatives of the Medicago truncatula NCR247 Symbiotic Peptide” (Frontiers in Microbiology, 2020)

System: human erythrocytes
Test: Hemolysis assay
Assay type: cell-based
Procedure: To evaluate possible side effects of the NCR247-based peptides, hemolysis and cytotoxicity assays were performed. Human blood was purchased from the Regional Blood Centre in Szeged. The use of human blood for the hemolysis assay has been authorized by the Regional Hungarian Ethics Committee and approved by the Ethics Review Sector of DG RTD (European Commission) in connection with EK’s ERC AdG SymBiotics. The cells from 1.2 mL of EDTA-blood were centrifuged at 1500 × g for 1 min and washed several times in TBS buffer (10 mM Tris, pH = 7.2, 150 mM NaCl) until the supernatant became colorless. The cells were then resuspended in 12 mL TBS buffer. 100 μL of this cell suspension was incubated with 100 μL of the peptides at 100 and 25 μM. Samples were incubated for 1 h at 37°C, and after centrifugation of the cells at 1500 g for 1 min, the supernatants were transferred into sterile 96-well plates and the hemoglobin release was measured at OD560 (Multiskan FC microplate reader, Thermo Fisher Scientific). Melittin (Bachem) at 50 μg/mL and TBS without peptides were used as positive and negative controls, respectively. Relative hemolytic activity (RHA) of each peptide was calculated as follows: (Compound OD560 −TBS OD560) × 100/(Melittin OD560 −TBS OD560).

What does the source list for `CC[C@H](C)[C@H](NC(=O)CN)C(=O)NCC(=O)N[C@@H](C)C(=O)N[C@H](C(=O)N[C@@H](CC(C)C)C(=O)N[C@@H](CCCCN)C(=O)N[C@H](C(=O)N[C@@H](CC(C)C)C(=O)N[C@H](C(=O)N[C@H](C(=O)NCC(=O)N[C@@H](CC(C)C)C(=O)N1CCC[C@H]1C(=O)N[C@@H](C)C(=O)N[C@@H](CC(C)C)C(=O)N[C@H](C(=O)N[C@@H](CO)C(=O)N[C@@H](Cc1c[nH]c2ccccc12)C(=O)N[C@H](C(=O)N[C@@H](CCCCN)C(=O)N[C@@H](CCCNC(=N)N)C(=O)N[C@@H](CCCCN)C(=O)N[C@@H](CCCNC(=N)N)C(=O)N[C@@H](CCC(N)=O)C(=O)N[C@@H](CCC(N)=O)C(N)=O)[C@@H](C)CC)[C@@H](C)CC)[C@@H](C)O)[C@@H](C)O)C(C)C)C(C)C` [Melittin]?
RHA% (relative hemolytic activity), positive control (melittin at 50 μg/mL (reference = 100)): 100%; OD560 AVE ± SD (hemoglobin release), positive control (melittin at 50 μg/mL, human erythrocytes in TBS pH 7.2, 1 h, 37°C): 1.14 ± 0.364
